Results: patent publication US5085739A, “Separation of the propyl alcohols from water by azeotropic or extractive distillation” (priority 1991, dated 1992)

Assay: vapor-liquid equilibrium still, n-propanol-water azeotrope with agent
Conditions: n-propanol from water, extractive distn., water as overhead

Dipropylene glycol methyl ether
Relative Volatility: 1.43
